According to patent publication US20250366743A1, “METHODS AND SYSTEMS FOR ENHANCING BLOOD GLUCOSE REGULATION AND TREATMENT OF DIABETES” (ARIZONA BOARD OF REGENTS ON BEHALF OF THE UNIVERSITY OF …, priority 2016, published 2025):

Conditions: rat

With insulin the “peak of insulin appearance in the blood” value (insulin infused through device, day 28 post implantation, same amount of insulin as day 5) was “shifts to the left (faster)” and the insulin release kinetics (insulin infused through port of implanted device after vasculature formed around it (28 days post-transplant)) was “better”.
